Results on 2 compounds are retold here after ChEMBL document CHEMBL1124015, “Methods for drug discovery: development of potent, selective, orally effective cholecystokinin antagonists” (J Med Chem, 1988).

Sequences of proteins named here, by UniProt entry; tags and fusion partners are left off.
UniProt P30551, whole entry: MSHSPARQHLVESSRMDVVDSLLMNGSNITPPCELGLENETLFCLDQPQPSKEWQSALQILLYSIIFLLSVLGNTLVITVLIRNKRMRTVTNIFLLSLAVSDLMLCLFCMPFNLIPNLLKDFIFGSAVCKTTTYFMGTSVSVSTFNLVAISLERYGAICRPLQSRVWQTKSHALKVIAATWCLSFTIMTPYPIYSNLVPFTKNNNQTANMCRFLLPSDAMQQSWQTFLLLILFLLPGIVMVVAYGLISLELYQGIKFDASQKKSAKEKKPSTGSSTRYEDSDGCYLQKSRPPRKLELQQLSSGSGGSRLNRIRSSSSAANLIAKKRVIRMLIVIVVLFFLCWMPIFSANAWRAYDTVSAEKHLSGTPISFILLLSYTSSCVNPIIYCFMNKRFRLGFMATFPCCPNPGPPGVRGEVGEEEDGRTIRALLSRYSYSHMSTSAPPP

Broadly, the IC50 is the concentration that gives 50% inhibition. A low value points to higher potency.

This experiment has as its target Cholecystokinin receptor type A (Rattus norvegicus, UniProt P30551). Briefly: Half-maximal inhibition of [125I]CCK-33 binding to cholecystokinin A receptor from rat pancreatic tissue.

In turn, `CN1C(=O)C(NC(=O)c2ccc(Cl)cc2)N=C(c2ccccc2)c2ccccc21` (configuration not stated) had an IC50 of 0.0083 µM.
With `O=C(NC1N=C(c2ccccc2F)c2ccccc2NC1=O)c1ccccc1Cl` (configuration not stated) the figure was 5.5 µM.
